Consider one compound from patent US5266599A, “Use of (+)-1-[(3,4,5-trimethoxy)-benzyloxymethyl]-1-phenyl-N,N-dimethyl-n-propy lamine to increase gastric discharge in a subject” (priority 1989, dated 1993).

This test deals with opiate receptors mu, delta and kappa. In kind it is binding. To be noted: in vitro.

Regarding `CN1CC[C@]23c4c5ccc(O)c4O[C@H]2[C@@H](O)C=C[C@H]3[C@H]1C5` [Morphine], the “receptor binding affinity to mu, delta and kappa (in words)” value is on record as “showing an affinity to the three receptors studied, with a non-negligible intensity”.
